## Experimental melting point values from OPERA 2.9

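The OPERA project collected these measurements from public sources as training and test data for property models. The files give a single number for a compound and property, which may rest on several reports. Conditions of the individual experiments are not part of the data. A value may pool stereoisomers or salt forms, and the file does not say which form was measured. Some upstream entries may be estimates or bounds without being marked so.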

The melting point is given in degrees Celsius. Cells with "n/a" have no entry in this list.

| compound | name | mp (°C) |
|---|---|---|
| CCOC(=O)c1c[nH]n2c1nc(=O)c1ccccc12 | n/a | 202 |
| CC(C)(C)c1cc(C(=O)O)n[nH]1 | 3-tert-butyl-1H-pyrazole-5-carboxylic acid | 196 |
| Cc1cc(C(=C2C=CC(=N)C=C2)c2ccc(N)cc2)ccc1N.Cl | C.I. Basic Violet 14 | 200 |
| Clc1ccc(-n2cccn2)nn1 | 3-Chloro-6-(1H-pyrazol-1-yl)pyridazine | 143 |
| O=C(Nc1cccc(O)c1)c1ccccc1 | Benzamide, N-(3-hydroxyphenyl)- | 172 |
| COc1ccccc1OCC(O)=NN | 2-(2-Methoxyphenoxy)ethanehydrazonic acid | 102 |
| CC(=O)c1ccc(C)c(F)c1 | 3'-Fluoro-4'-methylacetophenone | 32.5 |
| Nc1ccc2cc(S(=O)(=O)O)cc(O)c2c1 | 6-Amino-4-hydroxynaphthalene-2-sulfonic acid | 190 |
| CCCCCCC(O)CCCCCCCCCCC(=O)NCCCCNC(=O)CCCCCCCCCCC(O)CCCCCC (stereo not drawn) | n/a | 138.5 |
| Cc1ccc(NC(=O)C(C)C)cc1N | N-(3-Amino-4-methylphenyl)-2-methylpropanamide | 161 |
| CC1(C)C2CCC1(CS(=O)(=O)O)C(=O)/C2=C/c1ccc(/C=C2/C(=O)C3(CS(=O)(=O)O)CCC2C3(C)C)cc1 | Ecamsule | 255 |
| COc1c(Br)cc(Br)cc1C=O | 3,5-Dibromo-2-methoxybenzaldehyde | 94.5 |
| Nc1ccccc1C(=O)N1CCCC1 | (2-Aminophenyl)(pyrrolidin-1-yl)methanone | 87 |
| C=CCn1c(=S)[nH]c2sc3c(c2c1=O)CCC(C)C3 (stereo not drawn) | n/a | 229 |
| CC(CC(=O)[O-])CC(C)(C)C.CC(CC(=O)[O-])CC(C)(C)C.[Zn+2] (stereo not drawn) | Zinc bis(3,5,5-trimethylhexanoate) | 94 |
| CCCCC(CC)COCCO (stereo not drawn) | 2-(2-Ethylhexyloxy)ethanol | -104.9 |
| O/N=C/c1ccc(OCc2ccccc2)cc1 | 4-Benzyloxy-benzaldehyde oxime | 110 |
| C[C@@H]1C[C@H]2[C@@H]3CCC4=CC(=O)CC[C@]4(C)[C@H]3CC[C@]2(C)[C@H]1C(=O)CO | 21-Hydroxy-16 alpha-methyl-4-pregnene-3,20-dione | 105 |
| O=C(OCC(COC(=O)c1ccccc1)(COC(=O)c1ccccc1)COC(=O)c1ccccc1)c1ccccc1 | Pentaerythrityl tetrabenzoate | 101.1 |
| CCCCCCCCC=CCCCCCCCCNC(=O)CC(C(=O)[O-])S(=O)(=O)[O-].[Na+].[Na+] (stereo in doubt) | n/a | 268 |
| COc1cc(C=C(C(C)=O)C(C)=O)cc(OC)c1OC | Trimethoxybenzylidene pentanedione | 81.8 |
| COc1ccc2[nH]c(SCc3ncc(C)c(OC)c3C)nc2c1 | Omeprazole sulfide | 120.5 |
| CC(O)CN(CC(C)O)C(=O)CCCCC(=O)N(CC(C)O)CC(C)O (stereo not drawn) | Hexanediamide, N1,N1,N6,N6-tetrakis(2-hydroxypropyl)- | 99.85 |
| CC(C)CC(C(=O)O)N1C(=O)c2ccccc2C1=O (stereo not drawn) | n/a | 120 |
| Nc1nnc2ccc(Cl)nn12 | 6-Chloro[1,2,4]triazolo[4,3-b]pyridazin-3-amine | 275 |
| CC1(C)c2ccccc2-c2ccc(Nc3ccccc3-c3ccccc3)cc21 | N-([1,1'-Biphenyl]-2-yl)-9,9-dimethyl-9H-fluoren-2-amine | 121.1 |
| O=C(O)CNS(=O)(=O)Cc1ccccc1 | N-(Phenylmethanesulfonyl)glycine | 154 |
| CCNS(=O)(=O)c1cccc(C(=O)O)c1 | 3-(Ethylsulfamoyl)benzoic acid | 200 |
| C=COC(=O)c1ccccc1 | Vinyl benzoate | -35.1 |
| Nc1c(OCCOC(=O)Oc2ccccc2)cc(O)c2c1C(=O)c1ccccc1C2=O | n/a | 173 |
| N=c1nc(O)c(O[C@@H]2O[C@H](CO)[C@@H](O)[C@H](O)[C@H]2O)c(N)[nH]1 | Vicine | 243.5 |
| O=C(O)CCCOc1ccc(Cl)cc1 | 4-(4-Chlorophenoxy)butanoic acid | 115 |
| CC(=O)OCCOC(C)C | Ethanol, 2-(1-methylethoxy)-, 1-acetate | -69.5 |
| CCCCCCOC(=O)/C=C/C(=O)OCCCCCC | Dihexyl (2E)-2-butenedioate | 10 |
| N#CC1=C(N)CCC1 | 2-Aminocyclopent-1-ene-1-carbonitrile | 147 |
| Nc1n[nH]c(-c2ccc(Br)cc2)n1 | 5-(4-bromophenyl)-4H-1,2,4-triazol-3-amine | 215 |
| CC(=O)[O-].COc1ccc(N(C)/N=C/C2=[N+](C)c3ccccc3C2(C)C)cc1 | n/a | -12.2 |
| CC(C)c1cccc(C(C)CC=O)c1 (stereo not drawn) | beta-Methyl-3-(1-methylethyl)benzenepropanal | -50.08 |
| Cc1ccc(C(=O)C(=O)O)cc1 | 4-Methylbenzoylformic acid | 177 |

4 of these entries, quoted again:

{"smiles": "O/N=C/c1ccc(OCc2ccccc2)cc1", "name": "4-Benzyloxy-benzaldehyde oxime", "mp (°C)": "110"}
{"smiles": "CC1(C)C2CCC1(CS(=O)(=O)O)C(=O)/C2=C/c1ccc(/C=C2/C(=O)C3(CS(=O)(=O)O)CCC2C3(C)C)cc1", "name": "Ecamsule", "mp (°C)": "255"}
{"smiles": "Nc1ccc2cc(S(=O)(=O)O)cc(O)c2c1", "name": "6-Amino-4-hydroxynaphthalene-2-sulfonic acid", "mp (°C)": "190"}
{"smiles": "N=c1nc(O)c(O[C@@H]2O[C@H](CO)[C@@H](O)[C@H](O)[C@H]2O)c(N)[nH]1", "name": "Vicine", "mp (°C)": "243.5"}

Values as listed in the OPERA 2.9 repository of K. Mansouri.